Measurements from patent publication US10040791B2, “Isoxazole derivative as mutant isocitrate dehydrogenase 1 inhibitor” (Daiichi Sankyo Company, Limited, priority 2014, dated 2018).

Sequences of proteins named here, by UniProt entry; tags and fusion partners are left off.
UniProt O75874, whole entry R132H: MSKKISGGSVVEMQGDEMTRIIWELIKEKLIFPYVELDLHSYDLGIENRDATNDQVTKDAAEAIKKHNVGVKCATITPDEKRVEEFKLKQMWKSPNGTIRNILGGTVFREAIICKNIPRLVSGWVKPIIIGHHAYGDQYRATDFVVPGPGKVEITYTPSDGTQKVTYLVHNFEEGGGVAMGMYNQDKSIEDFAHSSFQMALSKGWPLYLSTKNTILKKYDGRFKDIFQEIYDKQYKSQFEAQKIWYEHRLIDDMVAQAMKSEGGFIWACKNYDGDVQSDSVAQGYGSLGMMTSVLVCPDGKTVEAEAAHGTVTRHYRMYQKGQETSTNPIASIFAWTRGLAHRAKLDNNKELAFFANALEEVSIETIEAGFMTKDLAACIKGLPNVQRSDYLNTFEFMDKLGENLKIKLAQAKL

Target: IDH1R132H (Homo sapiens (Human), UniProt O75874, R132H)
Experiment: Inhibitory activity against IDH1R132H enzyme (NADPH detection, WST-8)
Assay type: biochemical
Settings: 12 nM, residual NADPH detected with WST-8, read-out: Test Example 1 IDH1 R132H IC50

Row | IC50 [nM] | Compound
1 | 11 | COC(C)(C)c1onc(-c2c(Cl)cccc2Cl)c1C(=O)n1ccc2c(/C=C/C(=O)O)cccc21 [Example 27, (2E)-3-(1-{[3-(2,6-Dichlorophenyl)-5-(2-methoxypropan-2-yl)-1,2-oxazol-4-yl]carbonyl}-1H-indol-4-yl)prop-2-enoic acid]
2 | 30 | Cc1cn(C(=O)c2c(-c3c(Cl)cccc3Cl)noc2C(C)C)c2cccc(/C=C/C(=O)O)c12 [Example 25, (2E)-3-(1-{[3-(2,6-Dichlorophenyl)-5-(propan-2-yl)-1,2-oxazol-4-yl]carbonyl}-3-methyl-1H-indol-4-yl)prop-2-enoic acid]
3 | 27 | COc1cc(Cl)cc(Cl)c1-c1noc(C(C)(C)F)c1C(=O)n1cc(C)c2c(/C=C/C(=O)O)cccc21 [Example 58, (2E)-3-(1-{[3-(2,4-Dichloro-6-methoxyphenyl)-5-(2-fluoropropan-2-yl)-1,2-oxazol-4-yl]carbonyl}-3-methyl-1H-indol-4-yl)prop-2-enoic acid]
4 | 6 | CC(C)c1onc(-c2c(Cl)cccc2Cl)c1C(=O)n1ccc2c(/C=C/C(=O)O)cccc21 [Example 23, (2E)-3-(1-{[3-(2,6-Dichlorophenyl)-5-(propan-2-yl)-1,2-oxazol-4-yl]carbonyl}-1H-indol-4-yl)prop-2-enoic acid]
5 | 14 | COC1(c2onc(-c3c(F)cc(Cl)cc3Cl)c2C(=O)n2cc(C)c3c(/C=C/C(=O)O)cccc32)CCC1 [Example 14, (2E)-3-(1-{[3-(2,4-Dichloro-6-fluorophenyl)-5-(1-methoxycyclobutyl)-1,2-oxazol-4-yl]carbonyl}-3-methyl-1H-indol-4-yl]prop-2-enoic acid]
6 | 88 | C=CC(=O)N1CCN(c2onc(-c3c(Cl)cccc3Cl)c2C(=O)n2ccc3c(/C=C/C(=O)O)cccc32)C(C)(C)C1 [Example 153, (2E)-3-(1-{[5-(4-Acryloyl-2,2-dimethylpiperazin-1-yl)-3-(2,6-dichlorophenyl)-1,2-oxazol-4-yl]carbonyl}-1H-indol-4-yl)prop-2-enoic acid]
7 | 355 | C=CC(=O)N1CCC(c2onc(-c3c(Cl)cc(Cl)cc3Cl)c2C(=O)n2cc3c4c(cccc42)C(CC(=O)O)CC3)CC1 (stereo not drawn) [Example 125]
8 | 21 | Cc1cn(C(=O)c2c(-c3c(Cl)cc(Cl)cc3Cl)noc2C(C)(C)N(C)C)c2cccc(/C=C/C(=O)O)c12 [Example 91, (2E)-3-[1-({5-[2-(Dimethylamino)propan-2-yl]-3-(2,4,6-trichlorophenyl)-1,2-oxazol-4-yl}carbonyl)-3-methyl-1H-indol-4-yl]prop-2-enoic acid]
9 | 167 | C=CC(=O)N1CCN(c2onc(-c3c(Cl)cc(Cl)cc3Cl)c2C(=O)n2ccc3c(/C=C/C(=O)O)cccc32)C[C@H]1C [Example 148, (2E)-3-[1-({5-[(3R)-4-Acryloyl-3-methylpiperazin-1-yl]3-(2,4,6-trichlorophenyl)-1,2-oxazol-4-yl}carbonyl)-1H-indol-4-yl]prop-2-enoic acid]
10 | 127 | C=CC(=O)N1CCC(c2onc(-c3c(C)cc(C)cc3C)c2C(=O)n2ccc3c(/C=C/C(=O)O)cccc32)CC1 [Example 109]
11 | 50 | Cc1cn(C(=O)c2c(-c3c(Cl)cc(Cl)cc3Cl)noc2C2(C(=O)N(C)C)CCC2)c2cccc(/C=C/C(=O)O)c12 [Example 89, (2E)-3-(1-{[5-[1-(Dimethylcarbamoyl)cyclobutyl]-3-(2,4,6-trichlorophenyl)-1,2-oxazol-4-yl]carbonyl}-3-methyl-1H-indol-4-yl)prop-2-enoic acid]
12 | 12 | CN(C)c1onc(-c2c(Cl)cc(Cl)cc2Cl)c1C(=O)n1ccc2c(/C=C/C(=O)O)cccc21 [Example 138]
13 | 34 | C=CC(=O)N(C)C1(c2onc(-c3c(Cl)cc(Cl)cc3Cl)c2C(=O)n2cc(C)c3c(/C=C/C(=O)O)cccc32)CCC1 [Example 87, (2E)-3-(1-{[5-{1-[Acryloyl(methyl)amino]cyclobutyl}-3-(2,4,6-trichlorophenyl)-1,2-oxazol-4-yl]carbonyl}-3-methyl-1H-indol-4-yl)prop-2-enoic acid]
14 | 50 | COCC(C)(C)c1onc(-c2c(Cl)cc(Cl)cc2Cl)c1C(=O)n1ccc2c(/C=C/C(=O)O)cccc21 [Example 42, (2E)-3-(1-{[5-(1-Methoxy-2-methylpropan-2-yl)-3-(2,4,6-trichlorophenyl)-1,2-oxazol-4-yl]carbonyl}-1H-indol-4-yl)prop-2-enoic acid]
15 | 16 | C=CS(=O)(=O)N1CCN(c2onc(-c3c(Cl)cccc3Cl)c2C(=O)n2ccc3c(/C=C/C(=O)O)cccc32)CC1 [Example 149, (2E)-3-[1-({3-(2,6-Dichlorophenyl)-5-[4-(ethenylsulfonyl)piperazin-1-yl]-1,2-oxazol-4-yl}carbonyl)-1H-indol-4-yl]prop-2-enoic acid]
16 | 83 | C=CC(=O)N1CCN(c2onc(-c3c(Cl)cccc3Cl)c2C(=O)n2ccc3c(/C=C/C(=O)O)cccc32)CC1 [Example 142, (2E)-3-(1-{[5-(4-Acryloylpiperazin-1-yl)-3-(2,6-dichlorophenyl)-1,2-oxazol-4-yl]carbonyl}-1H-indol-4-yl)prop-2-enoic acid]
17 | 6 | COC1(c2onc(-c3c(Cl)cccc3Cl)c2C(=O)n2ccc3c(/C=C/C(=O)O)cccc32)COC1 [Example 76, (2E)-3-(1-{[3-(2,6-Dichlorophenyl)-5-(3-methoxyoxetan-3-yl)-1,2-oxazol-4-yl]carbonyl}-1H-indol-4-yl)prop-2-enoic acid]
18 | 8 | CC(C)c1onc(-c2c(Cl)ccc(F)c2Cl)c1C(=O)n1ccc2c(/C=C/C(=O)O)cccc21 [Example 28, (2E)-3-(1-{[3-(2,6-Dichloro-3-fluorophenyl)-5-(propan-2-yl)-1,2-oxazol-4-yl]carbonyl}-1H-indol-4-yl)prop-2-enoic acid]
19 | 69 | C=CC(=O)N1CCC(C)(c2onc(-c3c(Cl)cc(Cl)cc3Cl)c2C(=O)n2ccc3c(/C=C/C(=O)O)cccc32)CC1 [Example 111]
20 | 119 | C=CC(=O)N1CCC(COC)(c2onc(-c3c(Cl)cc(Cl)cc3Cl)c2C(=O)n2ccc3c(/C=C/C(=O)O)cccc32)CC1 [Example 120]
21 | 53 | CC(C)(C)c1noc(-c2c(Cl)cc(Cl)cc2Cl)c1C(=O)n1ccc2c(/C=C/C(=O)O)cccc21 [Example 34, (2E)-3-(1-{[3-(tert-Butyl)-5-(2,4,6-trichlorophenyl)-1,2-oxazol-4-yl]carbonyl}-1H-indol-4-yl)prop-2-enoic acid]
22 | 162 | C=CC(=O)N1CCC(c2noc(-c3c(Cl)cc(Cl)cc3Cl)c2C(=O)n2ccc3c(/C=C/C(=O)O)cccc32)CC1 [Example 132, (2E)-3-(1-{[3-(1-Acryloylpiperidin-4-yl)-5-(2,4,6-trichlorophenyl)-1,2-oxazol-4-yl]carbonyl}-1H-indol-4-yl)prop-2-enoic acid]

Row | Compound | IC50 [nM]
23 | CC(C)(F)c1onc(-c2c(Cl)cc(Cl)cc2Cl)c1C(=O)n1ccc2c(/C=C/C(=O)O)cccc21 [Example 36, (2E)-3-(1-{[5-(2-Fluoropropan-2-yl)-3-(2,4,6-trichlorophenyl)-1,2-oxazol-4-yl]carbonyl}-1H-indol-4-yl)prop-2-enoic acid] | 13
24 | C=CC(=O)N1CC2(CC2)N(c2onc(-c3c(Cl)cccc3Cl)c2C(=O)n2ccc3c(/C=C/C(=O)O)cccc32)C[C@H]1CC [Example 163, (2E)-3-[1-({5-[(6R)7-Acryloyl-6-ethyl-4,7-diazaspiro[2.5]oct-4-yl]-3-(2,6-dichlorophenyl)-1,2-oxazol-4-yl}carbonyl)-1H-indol-4-yl]prop-2-enoic acid] | 16
25 | CC(C)(F)c1onc(-c2ccc(Cl)cc2Cl)c1C(=O)n1cc2c3c(cccc31)/C(=C/C(=O)O)CC2 [Example 69, (2E)-[1-{[3-(2,4-Dichlorophenyl)-5-(2-fluoropropan-2-yl)-1,2-oxazol-4-yl]carbonyl}-3,4-dihydrobenzo[cd]indol-5(1H)-ylidene]ethanoic acid] | 18
26 | C=CC(=O)N1CC2(CC2)N(c2onc(-c3c(Cl)cccc3Cl)c2C(=O)n2ccc3c(/C=C/C(=O)O)cccc32)C[C@H]1C [Example 155, (2E)-3-[1-({5-[(6R)7-Acryloyl-6-methyl-4,7-diazaspiro[2.5]oct-4-yl]-3-(2,6-dichlorophenyl)-1,2-oxazol-4-yl}carbonyl)-1H-indol-4-yl]prop-2-enoic acid] | 20
27 | COC1(c2onc(-c3c(Cl)cc(Cl)cc3Cl)c2C(=O)n2cc(C)c3c(/C=C/C(=O)O)cccc32)COC1 [Example 4, (2E)-3-(1-{[5-(3-Methoxyoxetan-3-yl)-3-(2,4,6-trichlorophenyl)-1,2-oxazol-4-yl]carbonyl}-3-methyl-1H-indol-4-yl)prop-2-enoic acid] | 8
28 | Cc1cn(C(=O)c2c(-c3c(Cl)cc(Cl)cc3Cl)noc2C(C)(C)F)c2c(F)ccc(/C=C/C(=O)O)c12 [Example 50, (2E)-3-(7-Fluoro-1-{[5-(2-fluoropropan-2-yl)-3-(2,4,6-trichlorophenyl)-1,2-oxazol-4-yl]carbonyl}-3-methyl-1H-indol-4-yl)prop-2-enoic acid] | 11
29 | Cc1cn(C(=O)c2c(-c3c(Cl)cc(C4CC4)cc3Cl)noc2C(C)(C)F)c2cccc(/C=C/C(=O)O)c12 [Example 70, (2E)-3-(1-{[3-(2,6-Dichloro-4-cyclopropylphenyl)-5-(2-fluoropropan-2-yl)-1,2-oxazol-4-yl]carbonyl}-3-methyl-1H-indol-4-yl)prop-2-enoic acid] | 16
30 | C=CC(=O)N1CCC(c2onc(-c3c(Cl)cccc3Cl)c2C(=O)n2ccc3c(/C=C/C(=O)O)cccc32)CC1 [Example 102] | 53
31 | C=CC(=O)N1CCC(c2onc(-c3c(Cl)cc(F)cc3Cl)c2C(=O)n2cc(C)c3c(/C=C/C(=O)O)cccc32)CC1 [Example 112] | 31
32 | C=CC(=O)N1CCC(c2onc(-c3c(Cl)cc(Cl)cc3Cl)c2C(=O)n2cc(C)c3c(/C=C/C(=O)O)cccc32)CC1 [Example 104] | 32
33 | Cc1cn(C(=O)c2c(-c3ccc(Cl)cc3Cl)noc2C(C)(C)F)c2cccc(/C=C/C(=O)O)c12 [Example 62, (2E)-3-(1-{[3-(2,4-Dichlorophenyl)-5-(2-fluoropropan-2-yl)-1,2-oxazol-4-yl]carbonyl}-3-methyl-1H-indol-4-yl)prop-2-enoic acid] | 20
